Results taken from doi:10.1101/2021.04.11.439324 (bioRxiv, 2021).

Assays:
[1] = target: DNAJA2 (UniProt O60884); assay: fluorescence polarisation
[2] = target: T1, HSPB1 (S15D, S78D, S82D, I181G, V183G) (UniProt P04792, S15D | S78D | S82D | I181G | V183G); assay: fluorescence polarisation
[3] = target: T1, HSPB1 (S15D, S78D, S82D, I181G, V183G); assay: NMR titration

| Binder | Kd [1] [µM] | Kd [2] [µM] | binding result [3] |
| --- | --- | --- | --- |
| fluorescently tagged tau (tau C291S, C322S, L243C-AF488) (other, AF488 on L243C) CQTAPVPMPDLKNVKSKIGSTENLKHQPGGGKVQIINKKLDLSNVQSKSGSKDNIKHVPGGGSVQIVYKPVDLSKVTSKSGSLGNIHHKPGGGQVEVKSEKLDFKDRVQSKIGSLDNITHVPGGGNKKIE | 43 ± 8 | 250 ± 26 | – |
| tau^4R P301S mutant (domain or fragment, UniProt P10636-8 244-372, looked up) QTAPVPMPDLKNVKSKIGSTENLKHQPGGGKVQIINKKLDLSNVQSKCGSKDNIKHVSGGGSVQIVYKPVDLSKVTSKAGSLGNIHHKPGGGQVEVKSEKLDFKDRVQSKIGSLDNITHVPGGGNKKIE | – | – | binds |
| tau^4R P301L mutant (domain or fragment, UniProt P10636-8 244-372, looked up) QTAPVPMPDLKNVKSKIGSTENLKHQPGGGKVQIINKKLDLSNVQSKCGSKDNIKHVLGGGSVQIVYKPVDLSKVTSKAGSLGNIHHKPGGGQVEVKSEKLDFKDRVQSKIGSLDNITHVPGGGNKKIE | – | – | binds |
